## Measured affinities in a library of Ab-14 light chain variants

The target is the same throughout: PDVDLGDISGINAS, from the HR2 region of SARS-CoV-2 spike.

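Phage display of a naive human antibody library on the peptide gave the parent. Variants in AAYL50 differ from the parent at up to three CDR positions; double and triple changes were sampled at random. Affinity was read by AlphaSeq, a pooled yeast mating assay with surface-displayed partners. After mating in shaken culture at 30 °C for 16 h, diploids were selected and their barcode pairs sequenced. A regression on co-assayed BCL2-family reference pairs converts the normalised counts of each replicate to an apparent Kd. The assay was run in three technical replicates.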

The variants keep the heavy chain, the linker and the frameworks of Ab-14 (scFv order VH, three GGGGS repeats, VL).
VH: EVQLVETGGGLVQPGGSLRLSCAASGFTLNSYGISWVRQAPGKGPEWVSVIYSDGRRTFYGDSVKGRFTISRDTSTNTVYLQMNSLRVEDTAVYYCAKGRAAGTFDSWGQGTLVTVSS
VL: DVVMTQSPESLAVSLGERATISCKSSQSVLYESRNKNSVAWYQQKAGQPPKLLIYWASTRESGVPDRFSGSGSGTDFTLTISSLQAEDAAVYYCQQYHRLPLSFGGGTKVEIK

Substitutions are numbered in sequence along the VL above, starting at 1 (not Kabat).
All variants listed here change W56 of the VL, counted from its first residue.
Values are apparent Kd, the geometric mean of the replicates that gave a signal; lower means stronger binding.
Where no diploid with the target was found in any replicate, the entry reads "no signal": below detection, most likely a poor binder, though not proof of it.
Three control strains display no target. For library AAYL50, 18% of the pairings with them gave a signal, with a median of 15 µM and one signal in twenty below 970 nM, so weak values seen in few replicates may be background.

The variant V29N W56F R99Q gave 3.6 nM (3 of 3 replicates).
The variant L30S N35K W56A gave 2.0 nM (3 of 3 replicates).
The variant Y31I S38G W56A gave 3.7 nM (3 of 3 replicates).
The variant V39F W56A L102T gave 13 µM (2 of 3 replicates).
The variant Y31G A40N W56G gave 3.3 µM (2 of 3 replicates).
The variant S33L R34N W56R gave 5.7 nM (3 of 3 replicates).
The variant K24A N35L W56T gave 78 nM (2 of 3 replicates).
The variant S38T W56H E61V gave 5.5 nM (3 of 3 replicates).
The variant W56Q R99T S103D gave 1.1 nM (3 of 3 replicates).
The variant W56H gave 13 nM (3 of 3 replicates).
The variant Y31F V39I W56I gave 220 µM (1 of 3 replicates).
The variant K36A W56S gave 200 nM (1 of 3 replicates).
The variant W56K gave 7.0 nM (3 of 3 replicates).
The variant E32V W56D S62P gave 4.8 nM (3 of 3 replicates).
The variant N37Q W56A S103G gave 20 nM (3 of 3 replicates).
The variant S28F W56C S62K gave 38 nM (3 of 3 replicates).
The variant A40N W56H R60K gave 1.1 µM (1 of 3 replicates).
The variant S33W W56S S58G gave 2.2 nM (3 of 3 replicates).
The variant E32F S33V W56I gave 26 µM (1 of 3 replicates).
The variant V29I W56S gave 1.2 nM (3 of 3 replicates).
The variant S26D W56S R60M gave no signal (0 of 3 replicates).
The variant Y31D W56N Q96M gave no signal (0 of 3 replicates).
The variant S33Q W56G E61I gave 1.6 nM (3 of 3 replicates).
The variant L30K K36P W56K gave no signal (0 of 3 replicates).
The variant S26L S28F W56N gave 580 pM (3 of 3 replicates).
The variant W56E S62W P101A gave 1.4 nM (3 of 3 replicates).
The variant S25A E32Y W56M gave 2.1 nM (3 of 3 replicates).
The variant K24M W56I T59G gave 300 µM (1 of 3 replicates).
The variant S28V W56L Q95P gave 22 µM (3 of 3 replicates).
The variant W56D Q95S R99A gave no signal (0 of 3 replicates).
The variant Q27Y S28Q W56C gave 260 nM (3 of 3 replicates).
The variant W56Q Y97H S103Y gave 450 nM (3 of 3 replicates).
The variant N37K A40P W56M gave 100 µM (2 of 3 replicates).
The variant S25G W56N R99Y gave 1.6 nM (3 of 3 replicates).
The variant S25P R34A W56N gave 980 pM (3 of 3 replicates).
The variant W56Q Q96H P101V gave 14 nM (3 of 3 replicates).
The variant S26A W56H L100D gave no signal (0 of 3 replicates).
The variant W56P T59L L102T gave 7.4 µM (1 of 3 replicates).
The variant S25W R34D W56T gave 2.7 nM (3 of 3 replicates).
The variant V29M W56M L102T gave no signal (0 of 3 replicates).
The variant W56A S58H Q96M gave 9.3 nM (3 of 3 replicates).
The variant R34P V39H W56F gave 43 µM (2 of 3 replicates).
The variant K24V W56I L102C gave 87 µM (2 of 3 replicates).
The variant S25C W56C L100M gave no signal (0 of 3 replicates).
The variant S26M W56M Q95T gave 170 µM (3 of 3 replicates).
The variant W56Y S58R gave 51 nM (3 of 3 replicates).

The 3 strongest on average among those seen in every replicate, once more:

{"changes": "S26L S28F W56N", "apparent Kd": "580 pM", "replicates with signal": "3 of 3"}
{"changes": "S25P R34A W56N", "apparent Kd": "980 pM", "replicates with signal": "3 of 3"}
{"changes": "W56Q R99T S103D", "apparent Kd": "1.1 nM", "replicates with signal": "3 of 3"}

In this assay the parent's reference entry averaged 4.4 nM; its copy inside this library read 48 nM.

Source: Engelhart et al. 2022 (doi:10.1038/s41597-022-01779-4), MIT Lincoln Laboratory and A-Alpha Bio; data file from the FLAb repository.